Assay results reported in patent US4639468A, “Derivatives of glycinamide, their preparation and their use” (priority 1979, dated 1987).

Assays:
in vivo [1] = details: mouse, po, DL50/DE50 (therapeutical index), Table III
Experimental: The anticonvulsive effect was examined for tonic convulsions induced by bicuculline. The compounds of the invention were administrated orally at dosages of 10 and 100 mgr/kg, each to 5 mice, 3 hours before intravenous injection of bicuculline at the dosage of 0.6 mgr/kg. The number of mice protected against tonic convulsions and the number of dead mice were noted.
Amongst the substances according to the invention, 2-n-pentylaminoacetamideand its hydrochloride were more particularly studied. […] The hydrochloride was also administered intravenously. […] Table III also gives the therapeutical index (LD50/ED50).

in vivo [2] = details: mouse, po

Work on `O=C1NC(=O)C(c2ccccc2)(c2ccccc2)N1` [Na Diphenylhydantoin, reference compound] yielded a selectivity ratio (in vivo [1]) of 122 and an LD50 (in vivo [2]) of 320 mg/kg.
